Consider 49 compounds from PubChem BioAssay AID651647 (Sanford-Burnham Center for Chemical Genomics, 2012).

Only a part is listed here, and it is no random draw. Activity calls are given as the source filed them.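 The calls were made as follows: active = GFP/RFP ratio change of at least 30% with cell ATP level not reduced by more than half and red fluorescence within 50% of control; inactive = the rest, inconclusive results apart.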

This assay has as its target Matrix metalloproteinase-14 (Homo sapiens) (UniProt P50281). The experiment in a line: MT1-MMP activation inhibitors, cellular reporter – HT1080 RFP-PRO-GFP cells, GFP/RFP fluorescence, primary screen (AID 651647). Conditions: overnight, at 20 µM, stronger effect = higher value, percent of plate control window, DMSO zero. The method in brief: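 Test system: HT1080 RFP-PRO-GFP cells; Benchmarks: DMSO and RFP-L50D-GFP cell wells; Timing: cells overnight before dosing, compound overnight, 37 °C, 5% CO2; Compound: one 20 µM compound dose with 1% DMSO; Read-out: GFP/RFP fluorescence ratio.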
`O=C(OCCCN1CCCC1)C(O)(c1ccccc1)C1CCCCC1` (centres undefined): the GFP/RFP ratio change was inactive: 1.51%.

Consider `CCN(CC)CC(O)COC(=O)C(O)(c1ccccc1)C1CCCCC1` (centres undefined), for which the GFP/RFP ratio change is inactive: -2.61%.

Consider `COc1ccc(OP(C)(=O)Nc2ccc(Br)cc2)cc1` (centres undefined), for which the GFP/RFP ratio change was inactive: 10.7%.

Turning to `CP(=O)(Nc1ccccn1)Oc1ccc(Cl)cc1` (centres undefined), the GFP/RFP ratio change was inactive: -0.454%.

`CCOP(C)(=S)SCC(=O)NC(C)C(=O)O` (centres undefined): the GFP/RFP ratio change was inactive: -0.468%.

With `CCOC(=O)c1ccc(NP(C)(=O)Oc2ccc(OC)cc2)cc1` (centres undefined), the GFP/RFP ratio change was inactive: 4.51%.

Consider `O=[N+]([O-])c1cc([N+](=O)[O-])c(O)c([N+](=O)[O-])c1.c1ccc(Oc2ccncc2)cc1`, for which the GFP/RFP ratio change was inactive: 0.833%.

Consider `CCc1ccc(OP(C)(=O)N2CCN(c3ccc([N+](=O)[O-])cc3)CC2)cc1` (centres undefined), for which the GFP/RFP ratio change is inactive: -0.606%.

For the compound `CP(=O)(NC(=O)Nc1ccccc1)Oc1ccccc1` (centres undefined), the GFP/RFP ratio change was inactive: -1.81%.

Consider `Cc1cc(C)cc(OP(C)(=O)Nc2ccc(SC(F)(F)F)cc2)c1` (centres undefined), for which the GFP/RFP ratio change was inactive: -5.26%.

Consider `Cc1ccc(Nc2c([N+](=O)[O-])cc([N+](=O)[O-])cc2[N+](=O)[O-])cc1`, for which the GFP/RFP ratio change is inactive: 11.6%.

Turning to `Cc1cccc(C)c1OP(C)(=O)Nc1ccc(SC(F)(F)F)cc1` (centres undefined), the GFP/RFP ratio change was inactive: -1.4%.

For `CP(=O)(Nc1ccc(SC(F)(F)F)cc1)Oc1ccc(Cl)cc1` (centres undefined), the GFP/RFP ratio change is inactive: 2.09%.

For the compound `CP(=O)(Oc1ccccc1)OC(c1ccccc1)C(F)(F)F` (centres undefined), the GFP/RFP ratio change is inactive: -1.57%.

On to `COc1ccccc1OP(C)(=O)Nc1ccccc1` (centres undefined), for which the GFP/RFP ratio change was inactive: -4.92%.

`CP(=O)(Nc1ccccc1Br)Oc1ccccc1` (centres undefined): the GFP/RFP ratio change was inactive: 5.74%.

Consider `CP(=S)(Nn1cnnc1)Oc1ccccc1` (centres undefined), for which the GFP/RFP ratio change was inactive: 1.55%.

As for `COc1ccccc1OP(C)(=O)Nc1cc(Cl)ccc1C` (centres undefined), the GFP/RFP ratio change was inactive: 3.56%.

Take `COc1ccc(OP(C)(=O)Nc2cccc(F)c2)cc1` (centres undefined): the GFP/RFP ratio change was inactive: -0.881%.

For `Cc1cc(C)cc(OP(C)(N)=O)c1` (centres undefined), the GFP/RFP ratio change is inactive: -2.37%.

On to `CCOC(=O)c1ccc(NP(C)(=O)Oc2ccccc2)cc1` (centres undefined), for which the GFP/RFP ratio change is inactive: 1.21%.

Take `COc1ccccc1OP(C)(=O)Nc1ccc(C)cc1` (centres undefined): the GFP/RFP ratio change was inactive: 0.442%.

Take `Cc1ccc(NP(C)(=O)Oc2ccccc2)c(C)c1` (centres undefined): the GFP/RFP ratio change was inactive: 3.47%.

On to `CC(C)(C)c1ccc(OP(C)(=O)Nc2ccc(SC(F)(F)F)cc2)cc1` (centres undefined), for which the GFP/RFP ratio change was inactive: -6.76%.

Take `Cc1cccc(C)c1OP(C)(N)=O` (centres undefined): the GFP/RFP ratio change is inactive: -0.615%.

`O=[N+]([O-])c1ccc2c(c1)C=Nc1ccccc1O2`: the GFP/RFP ratio change is inactive: 1.39%.

As to `O=[N+]([O-])c1cc([N+](=O)[O-])c(Nc2cccnc2)c([N+](=O)[O-])c1`, the GFP/RFP ratio change was inactive: 6.57%.

`COc1ccccc1-c1ccccn1.O=[N+]([O-])c1cc([N+](=O)[O-])c(O)c([N+](=O)[O-])c1`: the GFP/RFP ratio change is inactive: 7.05%.

Consider `CCN(CC)CCCOC(=O)C(O)(c1ccccc1)c1ccccc1`, for which the GFP/RFP ratio change was inactive: -0.4%.

For the compound `CP(=O)(Nc1cccc(Br)c1)Oc1ccccc1` (centres undefined), the GFP/RFP ratio change is inactive: -4.67%.

Consider `Cc1cc(C)cc(OP(C)(=O)Nc2ccccn2)c1` (centres undefined), for which the GFP/RFP ratio change was inactive: -0.531%.

In the case of `Cc1ccc(C)c(NP(C)(=O)Oc2ccccc2)c1` (centres undefined), the GFP/RFP ratio change was inactive: -0.743%.

Regarding `Cc1cc(C)cc(OP(C)(=O)Nc2ccc(C)cc2C)c1` (centres undefined), the GFP/RFP ratio change was inactive: 5.21%.

On to `CCOC(=O)c1ccc(NP(C)(=O)Oc2cc(C)cc(C)c2)cc1` (centres undefined), for which the GFP/RFP ratio change is inactive: 3.04%.

With `COc1ccccc1OP(C)(=O)Nc1cccc(Br)c1` (centres undefined), the GFP/RFP ratio change is inactive: 0.851%.

With `CC1=NCCc2c1[nH]c1ccccc21.O=[N+]([O-])c1cc([N+](=O)[O-])c(O)c([N+](=O)[O-])c1`, the GFP/RFP ratio change is inactive: -2.42%.

With `O=C(O)c1cccc(Nc2c([N+](=O)[O-])cc([N+](=O)[O-])cc2[N+](=O)[O-])c1`, the GFP/RFP ratio change is inactive: 2.9%.

With `CP(=O)(Nc1ccc(SC(F)(F)F)cc1)Oc1ccccc1` (centres undefined), the GFP/RFP ratio change was inactive: 4.7%.

Regarding `CCCOc1ccc(NP(C)(=O)Oc2ccc(Cl)cc2)cc1` (centres undefined), the GFP/RFP ratio change is inactive: 9.06%.

`COc1ccc(-c2ccccn2)cc1.O=[N+]([O-])c1cc([N+](=O)[O-])c(O)c([N+](=O)[O-])c1`: the GFP/RFP ratio change is inactive: 13.8%.

Turning to `COc1ccccc1OP(C)(=O)Nc1c(C)cccc1C` (centres undefined), the GFP/RFP ratio change is inactive: 3.93%.

On to `CN1CCCCC1COC(=O)C1(O)c2ccccc2CCc2ccccc21` (centres undefined), for which the GFP/RFP ratio change is inactive: -20.7%.

`O=[N+]([O-])c1cc([N+](=O)[O-])c(Nc2nnnn2CCO)c([N+](=O)[O-])c1`: the GFP/RFP ratio change is inactive: 11.3%.

Take `CC1=C2N=C(C=C3N=C(C(C)=C4[N-][C@@](C)([C@@H]5N=C1[C@](C)(CCC(=O)NC[C@@H](C)OP(=O)([O-])O[C@H]1[C@@H](O)[C@@H](n6cnc7cc(C)c(C)cc76)O[C@@H]1CO)[C@H]5CC(N)=O)[C@@](C)(CC(N)=O)[C@@H]4CCC(N)=O)[C@@](C)(CC(N)=O)[C@@H]3CCC(N)=O)C(C)(C)[C@@H]2CCC(N)=O.[C-]#N.[Co+3]`: the GFP/RFP ratio change is inactive: 6.21%.

On to `CCOC(=O)C(CC)C1=NC(C)(C)Cc2ccccc21.O=[N+]([O-])c1cc([N+](=O)[O-])c(O)c([N+](=O)[O-])c1` (centres undefined), for which the GFP/RFP ratio change is inactive: 0.896%.

`Cc1nc2ccc3ccccc3c2s1.O=[N+]([O-])c1cc([N+](=O)[O-])c(O)c([N+](=O)[O-])c1`: the GFP/RFP ratio change is inactive: 1.15%.

As to `O=[N+]([O-])c1cc([N+](=O)[O-])c(-c2cnn(-c3ccccc3)c2)c([N+](=O)[O-])c1`, the GFP/RFP ratio change was inactive: -1.63%.

`CN(Cc1cccnc1)C(=O)COc1ccc(Cl)c(Cl)c1.O=[N+]([O-])c1cc([N+](=O)[O-])c(O)c([N+](=O)[O-])c1`: the GFP/RFP ratio change is inactive: 3.87%.

As to `O=[N+]([O-])c1cc([N+](=O)[O-])c(-n2nnc3ccccc32)c([N+](=O)[O-])c1`, the GFP/RFP ratio change is inactive: 2.72%.
